{
  "source": "PubChem BioAssay AID2016",
  "about": "(NMMLSC, 2009)",
  "note": "The entries are a selection whose mix differs from that of the whole data set. Calls of active or inactive are those of the source.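 Rule for the calls: active = GFP response versus DMSO above a set limit, roughly screen mean plus 3 SD (cut at about 180% in these data); inconclusive = fewer than 70 cells counted for a yeast strain; inactive = the rest.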",
  "data": [
    {"assay": "modulators of MEP2-GFP levels in yeast, primary screen, S. cerevisiae, multiplex flow cytometry, MLPCN library (AID 2016);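 note: median GFP fluorescence of the barcode-gated MEP2-GFP cells per well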", "settings": "S. cerevisiae MEP2-GFP strain, 3 h, at 10 µM, active compounds read high, 100% = DMSO control level", "values": [
      {"smiles": "CCC(=O)N(c1ccccc1)C1(COC)CCN(CCn2nnn(CC)c2=O)CC1", "GFP response vs DMSO": "inactive: 96.6%"},
      {"smiles": "CCC(=O)N(c1ccccc1)C1(COC)CCN(CCc2cccs2)CC1", "GFP response vs DMSO": "inactive: 102%"}
    ]}
  ]
}
